Test results from patent publication US20210395313A1, “PEPTIDE PAC1 ANTAGONISTS” (AMGEN INC., priority 2017, published 2021).

Columns and labels:
human PAC1 receptor = target: T1, human PAC1 receptor (Homo sapiens, UniProt P41586); experiment: LANCE Ultra cAMP accumulation antagonist assay in SHSY-5Y cells; assay type: cell-based;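 also: inhibition of cAMP accumulation evoked by PAC1 agonist at its EC80 in SHSY-5Y cells endogenously expressing receptor, 30 min preincubation then 15 min agonist, TR-FRET readout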
T1 construct: SHSY-5Y (human neuroblastoma cell line) and RG-2 (rat glioma cell line) cells endogenously express human and rat PAC1 receptors, respectively; endogenous in cells; host or cells: SHSY-5Y human neuroblastoma cells
T1 sequence (P41586 21-468): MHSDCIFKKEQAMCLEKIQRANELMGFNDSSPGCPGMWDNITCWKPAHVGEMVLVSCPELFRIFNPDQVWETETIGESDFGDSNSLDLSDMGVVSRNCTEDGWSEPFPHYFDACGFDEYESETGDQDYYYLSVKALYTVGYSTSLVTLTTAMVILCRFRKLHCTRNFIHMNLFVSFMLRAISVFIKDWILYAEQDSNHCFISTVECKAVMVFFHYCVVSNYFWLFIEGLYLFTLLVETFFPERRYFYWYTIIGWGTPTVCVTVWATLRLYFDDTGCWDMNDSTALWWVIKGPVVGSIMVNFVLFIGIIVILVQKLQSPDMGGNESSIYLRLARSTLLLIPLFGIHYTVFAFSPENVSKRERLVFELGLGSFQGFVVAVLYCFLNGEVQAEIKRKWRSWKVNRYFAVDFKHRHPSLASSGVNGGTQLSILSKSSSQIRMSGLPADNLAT

rat PAC1 receptor = target: T2, rat PAC1 receptor (Rattus norvegicus, UniProt P32215); experiment: LANCE Ultra cAMP accumulation antagonist assay in RG-2 cells; assay type: cell-based;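 also: RG-2 rat glioma cells endogenously expressing PAC1, test peptide preincubated 30 min, then PAC1 agonist added at its EC80 for 15 min, cAMP accumulation read by LANCE Ultra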
T2 construct: SHSY-5Y (human neuroblastoma cell line) and RG-2 (rat glioma cell line) cells endogenously express human and rat PAC1 receptors, respectively; endogenous in cells; host or cells: RG-2 rat glioma cells
T2 sequence (P32215 20-523): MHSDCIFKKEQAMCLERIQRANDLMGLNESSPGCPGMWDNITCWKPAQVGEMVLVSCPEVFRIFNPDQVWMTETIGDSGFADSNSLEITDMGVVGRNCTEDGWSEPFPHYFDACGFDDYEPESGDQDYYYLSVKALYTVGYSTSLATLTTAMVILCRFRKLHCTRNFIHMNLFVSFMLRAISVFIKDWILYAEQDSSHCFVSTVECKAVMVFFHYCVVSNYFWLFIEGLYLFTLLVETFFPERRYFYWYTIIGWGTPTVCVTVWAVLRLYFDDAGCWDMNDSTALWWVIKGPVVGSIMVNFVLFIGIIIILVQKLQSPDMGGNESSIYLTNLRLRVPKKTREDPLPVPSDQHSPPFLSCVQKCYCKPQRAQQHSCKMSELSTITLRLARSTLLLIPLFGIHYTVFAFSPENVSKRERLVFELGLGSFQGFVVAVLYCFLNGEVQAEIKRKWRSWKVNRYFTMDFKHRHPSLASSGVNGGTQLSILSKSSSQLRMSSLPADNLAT

Row | SMILES | IC50 (human PAC1 receptor) [nM] | IC50 (rat PAC1 receptor) [nM]
1 | CSCC[C@H](NC(=O)[C@H](CS)NC(=O)C(C)(C)NC(=O)[C@H](CCCCN)NC(=O)[C@@H](N)Cc1ccccc1)C(=O)N[C@@H](CCCCN)C(=O)N[C@@H](CCC(N)=O)C(=O)N[C@@H](CCCCN)C(=O)N[C@@H](CCCCN)C(=O)N[C@@H](CCCCN)C(=O)N[C@@H](CCC(=O)O)C(=O)N[C@@H](Cc1ccccc1)C(=O)N[C@@H](CCCCN)C(=O)N[C@@H](C)C(=O)NCC(N)=O [compound 232] | > 100 | 1 to 100
2 | CC[C@H](C)[C@H](NC(=O)[C@H](C)NC(=O)[C@H](CCCCN)NC(=O)[C@H](CCCNC(=N)N)NC(=O)[C@H](Cc1ccccc1)NC(=O)[C@H](CCC(N)=O)NC(=O)[C@@H]1CSSC[C@H](N)C(=O)N[C@@H](CC(=O)O)C(=O)N[C@@H](C)C(=O)N[C@@H]([C@@H](C)O)C(=O)N1)C(=O)N[C@@H](CC(=O)O)C(=O)N[C@@H](CC(=O)O)C(=O)N[C@H]1CSSC[C@@H](C(=O)N[C@@H](CCSC)C(=O)N[C@@H](CCCCN)C(=O)N[C@@H](CCC(N)=O)C(=O)N[C@@H](CCCCN)C(=O)N[C@@H](CCCCN)C(=O)N[C@@H](CCCCN)C(=O)N[C@@H](CCC(=O)O)C(=O)N[C@@H](Cc2ccccc2)C(=O)N[C@@H](CCCCN)C(=O)N[C@@H](C)C(=O)NCC(N)=O)NC(=O)C(C)(C)NC(=O)[C@H](CCCCN)NC(=O)[C@H](Cc2ccccc2)NC(=O)[C@H](CO)NC(=O)CNC(=O)[C@@H]2CCCN2C(=O)[C@H](C(C)C)NC(=O)[C@H](CC(N)=O)NC(=O)[C@H](CO)NC(=O)[C@H](Cc2c[nH]cn2)NC(=O)[C@H](Cc2c[nH]cn2)NC(=O)[C@H](C)NC(=O)[C@H](CCC(N)=O)NC(=O)[C@H](CCCCN)NC(=O)[C@H](CC(=O)O)NC1=O [compound 234] | 0.01 to 1 | 0.01 to 1
3 | CC[C@H](C)[C@H](NC(=O)[C@H](C)NC(=O)[C@H](CCCCN)NC(=O)[C@H](CCCNC(=N)N)NC(=O)[C@H](Cc1ccccc1)NC(=O)[C@H](CCC(N)=O)NC(=O)[C@@H]1CSSC[C@H](N)C(=O)N[C@@H](CC(=O)O)C(=O)N[C@@H](C)C(=O)N[C@@H]([C@@H](C)O)C(=O)N1)C(=O)N[C@@H](CC(=O)O)C(=O)N[C@@H](CC(=O)O)C(=O)N[C@H]1CSSC[C@@H](C(=O)N[C@@H](CCSC)C(=O)N[C@@H](CCCCN)C(=O)N[C@@H](CCC(N)=O)C(=O)N[C@@H](CCCCN)C(=O)N[C@@H](CCCCN)C(=O)N[C@@H](CCCCN)C(=O)N[C@@H](CCC(=O)O)C(=O)N[C@@H](Cc2ccccc2)C(=O)N[C@@H](CCCCN)C(=O)N[C@@H](C)C(=O)NCC(N)=O)NC(=O)C(C)(C)NC(=O)[C@H](CCCCN)NC(=O)[C@H](Cc2ccccc2)NC(=O)[C@H](C(C)C)NC(=O)[C@H](CO)NC(=O)CNC(=O)[C@@H]2CCCN2C(=O)[C@H](C(C)C)NC(=O)[C@H](CC(N)=O)NC(=O)[C@H](CO)NC(=O)[C@H](Cc2c[nH]cn2)NC(=O)[C@H](Cc2ccc(O)cc2)NC(=O)[C@H](C)NC(=O)[C@H](CCC(N)=O)NC(=O)[C@H](CCCCN)NC(=O)[C@H](CCC(N)=O)NC1=O [compound 235] | 0.01 to 1 | 0.01 to 1
4 | CC[C@H](C)[C@H](NC(=O)[C@H](C)NC(=O)[C@H](CCCCN)NC(=O)[C@H](CCCNC(=N)N)NC(=O)[C@H](Cc1ccccc1)NC(=O)[C@H](CCC(N)=O)NC(=O)[C@@H]1CSSC[C@H](NC(C)=O)C(=O)N[C@@H](CC(=O)O)C(=O)N[C@@H](C)C(=O)N[C@@H]([C@@H](C)O)C(=O)N1)C(=O)N[C@@H](CC(=O)O)C(=O)N[C@@H](CC(=O)O)C(=O)N[C@H]1CSSC[C@@H](C(=O)N[C@@H](CCSC)C(=O)N[C@@H](CCCCN)C(=O)N[C@@H](CCC(N)=O)C(=O)N[C@@H](CCCCN)C(=O)N[C@@H](CCCCN)C(=O)N[C@@H](CCCCN)C(=O)N[C@@H](CCC(=O)O)C(=O)N[C@@H](Cc2ccccc2)C(=O)N[C@@H](CCCCN)C(=O)N[C@@H](C)C(=O)NCC(N)=O)NC(=O)C(C)(C)NC(=O)[C@H](CCCCN)NC(=O)[C@H](Cc2ccccc2)NC(=O)[C@H](C(C)C)NC(=O)[C@H](CO)NC(=O)CNC(=O)[C@@H]2CCCN2C(=O)[C@H](C(C)C)NC(=O)[C@H](CC(N)=O)NC(=O)[C@H](CO)NC(=O)[C@H](Cc2c[nH]cn2)NC(=O)[C@H](Cc2c[nH]cn2)NC(=O)[C@H](C)NC(=O)[C@H](CCC(N)=O)NC(=O)[C@H](CCCCN)NC(=O)[C@H](CC(=O)O)NC1=O [compound 236] | 0.01 to 1 | 0.01 to 1
5 | CC[C@H](C)[C@H](NC(=O)[C@H](C)NC(=O)[C@H](CCCCN)NC(=O)[C@H](CCCNC(=N)N)NC(=O)[C@H](Cc1ccccc1)NC(=O)[C@H](CCC(N)=O)NC(=O)[C@@H]1CSSC[C@H](N)C(=O)N[C@@H](CC(=O)O)C(=O)N[C@@H](C)C(=O)N[C@@H]([C@@H](C)O)C(=O)N1)C(=O)N[C@@H](CC(=O)O)C(=O)N[C@@H](CC(=O)O)C(=O)N[C@H]1CSSC[C@@H](C(=O)N[C@@H](CCSC)C(=O)N[C@@H](CCCCN)C(=O)N[C@@H](CCC(N)=O)C(=O)N[C@@H](CCCCN)C(=O)N[C@@H](CCCCN)C(=O)N[C@@H](CCCCN)C(=O)N[C@@H](CCC(=O)O)C(=O)N[C@@H](Cc2ccccc2)C(=O)N[C@@H](CCCCN)C(=O)N[C@@H](C)C(=O)NCC(N)=O)NC(=O)C(C)(C)NC(=O)[C@H](CCCCN)NC(=O)[C@H](Cc2ccccc2)NC(=O)[C@H](C(C)C)NC(=O)CNC(=O)[C@@H]2CCCN2C(=O)[C@H](C(C)C)NC(=O)[C@H](CC(N)=O)NC(=O)[C@H](CO)NC(=O)[C@H](Cc2c[nH]cn2)NC(=O)[C@H](Cc2c[nH]cn2)NC(=O)[C@H](C)NC(=O)[C@H](CCC(N)=O)NC(=O)[C@H](CCCCN)NC(=O)[C@H](CCC(N)=O)NC1=O [compound 237] | 1 to 100 | 0.01 to 1
6 | CC[C@H](C)[C@H](NC(=O)[C@H](C)NC(=O)[C@H](CCCCN)NC(=O)[C@H](CCCNC(=N)N)NC(=O)[C@H](Cc1ccccc1)NC(=O)[C@H](CCC(N)=O)NC(=O)[C@@H]1CSSC[C@H](N)C(=O)N[C@@H](CC(=O)O)C(=O)N[C@@H](C)C(=O)N[C@@H]([C@@H](C)O)C(=O)N1)C(=O)N[C@@H](CC(=O)O)C(=O)N[C@@H](CC(=O)O)C(=O)N[C@H]1CSSC[C@@H](C(=O)N[C@@H](CCSC)C(=O)N[C@@H](CCCCN)C(=O)N[C@@H](CCC(N)=O)C(=O)N[C@@H](CCCCN)C(=O)N[C@@H](CCCCN)C(=O)N[C@@H](CCCCN)C(=O)N[C@@H](CCC(=O)O)C(=O)N[C@@H](Cc2ccccc2)C(=O)N[C@@H](CCCCN)C(=O)N[C@@H](C)C(=O)NCC(N)=O)NC(=O)C(C)(C)NC(=O)[C@H](CCCCN)NC(=O)[C@H](Cc2ccccc2)NC(=O)[C@H](C(C)C)NC(=O)CNC(=O)[C@@H]2CCCN2C(=O)[C@H](C(C)C)NC(=O)[C@H](CC(N)=O)NC(=O)[C@H](CO)NC(=O)[C@H](Cc2c[nH]cn2)NC(=O)[C@H](Cc2c[nH]cn2)NC(=O)[C@H](C)NC(=O)[C@H](CCC(N)=O)NC(=O)[C@H](CCCCN)NC(=O)[C@H](CC(=O)O)NC1=O [compound 238] | 0.01 to 1 | 0.01 to 1
7 | CC[C@H](C)[C@H](NC(=O)[C@H](C)NC(=O)[C@H](CCCCN)NC(=O)[C@H](CCCNC(=N)N)NC(=O)[C@H](Cc1ccccc1)NC(=O)[C@H](CCC(N)=O)NC(=O)[C@@H]1CSSC[C@H](NC(C)=O)C(=O)N[C@@H](CC(=O)O)C(=O)N[C@@H](C)C(=O)N[C@@H]([C@@H](C)O)C(=O)N1)C(=O)N[C@@H](CC(=O)O)C(=O)N[C@@H](CC(=O)O)C(=O)N[C@H]1CSSC[C@@H](C(=O)N[C@@H](CCSC)C(=O)N[C@@H](CCCCN)C(=O)N[C@@H](CCC(N)=O)C(=O)N[C@@H](CCCCN)C(=O)N[C@@H](CCCCN)C(=O)N[C@@H](CCCCN)C(=O)N[C@@H](CCC(=O)O)C(=O)N[C@@H](Cc2ccccc2)C(=O)N[C@@H](CCCCN)C(=O)N[C@@H](C)C(=O)NCC(N)=O)NC(=O)C(C)(C)NC(=O)[C@H](CCCCN)NC(=O)[C@H](Cc2ccccc2)NC(=O)[C@H](CO)NC(=O)CNC(=O)[C@@H]2CCCN2C(=O)[C@H](C(C)C)NC(=O)[C@H](CC(N)=O)NC(=O)[C@H](CO)NC(=O)[C@H](Cc2c[nH]cn2)NC(=O)[C@H](Cc2c[nH]cn2)NC(=O)[C@H](C)NC(=O)[C@H](CCC(N)=O)NC(=O)[C@H](CCCCN)NC(=O)[C@H](CC(=O)O)NC1=O [compound 239] | 1 to 100 | 0.01 to 1
